Screening data (PubChem)
A selection: hits, their analogues and other compounds. The true share with any hit is near 1.8%.
E-sel inducer = E-selectin induction in HUVECs, primary screen, imaging, HUVEC, immunofluorescence imaging, single point | normalized: neutral wells 0, TNF-alpha wells 100 | P16581 | hit rate 0.37% among 260,000 | AID 686992, 2013 | activation, % at 7.58 µM;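 active means mean E-selectin-positive cell signal at least 10% of the positive control, reached in at least 60% of replicates, without over 20% cell loss; inconclusive means no rule given, readout overlaps actives, possibly toxicity-flagged; inactive means the rest, including those meeting only one limit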
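Test system: HUVEC | Signal: Immunofluorescence imaging | Read-out: Percent E-selectin-positive cells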
SIRT5 block = SIRT5 desuccinylase inhibitors, primary screen, biochemical, fluorescence imaging, single point, set 5; NAD-dependent protein deacylase sirtuin-5, mitochondrial (Homo sapiens), Q9NXA8; hit rate 1.1% among 330,000; inhibition, % at 15 µM; AID 652115, 2013; Purified SirT5, succinyl-peptide AMC, trypsin-coupled fluorescence; in the data active means inhibition above about 15%; inconclusive means no clear call, values can overlap the other calls
UUG fidelity = modulators of yeast start codon fidelity, primary screen, whole organism, S. cerevisiae, single point, plate reader | AID 602363, 2012 | actives 0.13% (n = 350,000) | activity score, % at 18.7 µM | S. cerevisiae UUG-firefly luciferase reporter, luminescence/redox ratio;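 active means replicate mean at a twofold rise or more, about +100% in these data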;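 further: firefly luciferase made from a UUG start codon reports start codon fidelity; reporter light over untreated wells divided by growth signal over untreated wells; some hits fall short of that in this replicate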
RAD54 branch = inhibitors of human RAD54 branch migration, primary screen, biochemical, fluorescence, single point; inhibition, % at 10.4 µM; DNA repair and recombination protein RAD54-like (Homo sapiens), Q92698; RAD54 Holliday junction branch migration, FAM/BHQ fluorescence; hit rate 0.14% among 360,000; AID 602329, 2012;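 active means mean normalized replicate activity at least 40 and at least half of replicates scoring 40 or more; inconclusive means only one of the two criteria met; inactive means mean below 40 and under half of replicates reaching 40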;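 further: 0% = median of neutral control wells and 100% = median of positive control wells; inhibitors cause a drop in the FAM fluorescence signal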
MLL AF4-AF9 inh = inhibitors of AF4 peptide binding to AF9, primary screen, biochemical, AlphaScreen, biotin-AF4 peptide, FLAG-AF9, single point. AID 651704, 2012. inhibition, % at 10 µM. Protein AF-9 (Homo sapiens), P42568. hit rate 0.47% among 350,000;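 active means every replicate reaching a set inhibition limit, whatever the replicate mean, cut at about 25% in these data; inconclusive means mean inhibition reaches that limit but some replicates miss it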;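 further: 0% = plate neutral control median and 100% = total signal loss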
RAD52 anneal inh = RAD52 DNA annealing inhibitors, primary screen, biochemical, FRET, single point, set 2; hit rate 0.46% among 360,000; recombinant RAD52 DNA annealing, FRET fluorescence; inhibition, % at 18.7 µM; DNA repair protein RAD52 homolog (Homo sapiens), P43351;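 active means every replicate showing at least 50% inhibition; inconclusive means mean inhibition at least 50% but not in every replicate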
The depositor's hits bear a star; i = inactive; u = inconclusive; x = no result.

Protein sequences, listed by entry. Tags and fused reporters are not part of them.
DNA repair and recombination protein RAD54-like (Homo sapiens), Q92698, UniProt Q92698, whole entry, looked up: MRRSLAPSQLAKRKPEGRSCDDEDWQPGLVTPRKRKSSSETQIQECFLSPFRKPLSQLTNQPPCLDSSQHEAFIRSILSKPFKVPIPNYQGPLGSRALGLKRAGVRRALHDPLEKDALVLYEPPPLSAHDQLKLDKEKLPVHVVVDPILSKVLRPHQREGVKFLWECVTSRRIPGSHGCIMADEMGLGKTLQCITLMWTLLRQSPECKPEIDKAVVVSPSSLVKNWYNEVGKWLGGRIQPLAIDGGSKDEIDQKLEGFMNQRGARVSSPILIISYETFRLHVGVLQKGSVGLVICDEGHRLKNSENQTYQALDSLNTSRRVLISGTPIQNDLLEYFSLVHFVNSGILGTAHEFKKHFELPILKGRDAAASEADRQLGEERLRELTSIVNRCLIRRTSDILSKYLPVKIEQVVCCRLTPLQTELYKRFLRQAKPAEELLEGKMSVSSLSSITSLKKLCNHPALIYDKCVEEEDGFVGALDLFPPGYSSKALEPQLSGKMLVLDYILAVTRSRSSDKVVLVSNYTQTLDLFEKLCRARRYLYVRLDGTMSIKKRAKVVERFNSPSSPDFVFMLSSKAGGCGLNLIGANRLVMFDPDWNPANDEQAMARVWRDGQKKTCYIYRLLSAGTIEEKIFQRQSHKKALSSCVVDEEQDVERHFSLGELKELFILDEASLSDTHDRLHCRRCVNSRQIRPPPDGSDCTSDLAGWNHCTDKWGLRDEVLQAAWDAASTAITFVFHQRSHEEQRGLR
Protein AF-9 (Homo sapiens), P42568, UniProt P42568, whole entry, looked up: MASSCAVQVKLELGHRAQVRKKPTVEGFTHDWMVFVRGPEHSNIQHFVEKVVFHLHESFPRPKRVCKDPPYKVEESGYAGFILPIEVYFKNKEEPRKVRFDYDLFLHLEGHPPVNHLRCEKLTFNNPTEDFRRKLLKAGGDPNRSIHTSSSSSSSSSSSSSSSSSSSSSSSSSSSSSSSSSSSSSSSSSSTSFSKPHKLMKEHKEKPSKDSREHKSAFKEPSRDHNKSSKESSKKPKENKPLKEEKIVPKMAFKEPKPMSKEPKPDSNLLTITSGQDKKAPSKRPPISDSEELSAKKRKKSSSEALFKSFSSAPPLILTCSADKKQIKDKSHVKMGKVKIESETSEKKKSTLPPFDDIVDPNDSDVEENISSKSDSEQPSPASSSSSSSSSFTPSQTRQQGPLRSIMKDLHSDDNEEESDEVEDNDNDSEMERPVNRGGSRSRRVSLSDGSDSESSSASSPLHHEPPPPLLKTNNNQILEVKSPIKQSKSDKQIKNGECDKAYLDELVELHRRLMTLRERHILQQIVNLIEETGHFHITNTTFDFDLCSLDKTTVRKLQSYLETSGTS
DNA repair protein RAD52 homolog (Homo sapiens), P43351, UniProt P43351, whole entry, looked up: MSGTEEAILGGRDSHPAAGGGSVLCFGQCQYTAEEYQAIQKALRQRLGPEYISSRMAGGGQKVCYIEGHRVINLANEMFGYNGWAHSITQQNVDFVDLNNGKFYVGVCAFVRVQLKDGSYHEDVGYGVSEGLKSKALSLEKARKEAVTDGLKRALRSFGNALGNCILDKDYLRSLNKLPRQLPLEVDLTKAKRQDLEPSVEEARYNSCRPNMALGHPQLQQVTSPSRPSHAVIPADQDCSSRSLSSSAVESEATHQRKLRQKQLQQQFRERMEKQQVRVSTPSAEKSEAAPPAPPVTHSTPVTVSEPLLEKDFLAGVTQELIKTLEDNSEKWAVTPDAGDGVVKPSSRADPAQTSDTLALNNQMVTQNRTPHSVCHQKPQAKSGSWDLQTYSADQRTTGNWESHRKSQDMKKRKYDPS

mol | E-sel inducer | SIRT5 block | UUG fidelity | RAD54 branch | MLL AF4-AF9 inh | RAD52 anneal inh
C[C@@H]1CN([C@H](C)CO)C(=O)Cc2cc(NS(=O)(=O)c3ccc(F)cc3)ccc2O[C@@H]1CN(C)S(=O)(=O)c1ccc(Cl)cc1 | 69* | x | -1 | 1 | x | x
C[C@H]1CN([C@@H](C)CO)C(=O)Cc2cc(NS(=O)(=O)c3ccc(F)cc3)ccc2O[C@H]1CN(C)S(=O)(=O)c1ccc(Cl)cc1 | 198* | x | 4 | -2 | x | x
C[C@@H]1CN([C@@H](C)CO)C(=O)Cc2cc(NS(=O)(=O)c3ccc(F)cc3)ccc2O[C@@H]1CN(C)S(=O)(=O)c1ccc(Cl)cc1 | 102* | x | -12 | -2 | x | x
C[C@H](CO)N1C[C@H](C)[C@@H](CN(C)S(=O)(=O)c2ccc(F)cc2)Oc2ccc(NS(C)(=O)=O)cc2CC1=O | 311* | -3 | 3 | 14 | -3 | 6
C[C@H]1CN([C@@H](C)CO)C(=O)Cc2cc(NS(=O)(=O)c3ccc(Cl)cc3)ccc2O[C@H]1CN(C)S(=O)(=O)c1ccc(Cl)cc1 | 2 | 8 | -3 | 6 | 3 | -9
C[C@@H]1CN([C@H](C)CO)C(=O)Cc2cc(NS(=O)(=O)c3ccc(Cl)cc3)ccc2O[C@H]1CN(C)S(=O)(=O)c1ccc(F)cc1 | -1 | 4 | 19 | -6 | 1 | 11
C[C@@H]1CN([C@@H](C)CO)C(=O)Cc2cc(NS(=O)(=O)c3ccc(Cl)cc3)ccc2O[C@H]1CN(C)S(=O)(=O)c1ccc(F)cc1 | 0 | 3 | 13 | -9 | 0 | 1
N#C[C@@H]1[C@@H](c2ccc(C#Cc3cccnc3)cc2)[C@@H](CO)N1C(=O)NC1CCCCC1 | 0 | -1 | -15 | 5 | -1 | -32
COc1cccc(C(=O)Nc2ccc3c(c2)OC[C@H](C)N(C(C)=O)C[C@H](C)[C@@H](OC)CN(C)C3=O)c1 | 0 | 4 | 6 | 10 | 0 | -10
C[C@@H]1CN([C@@H](C)CO)C(=O)Cc2cc(NS(=O)(=O)c3ccc(F)cc3)ccc2O[C@H]1CN(C)S(=O)(=O)c1ccc(Cl)cc1 | 34* | x | 12 | 0 | x | x
CC(C)NC(=O)N(C)C[C@H]1Oc2ccc(NS(=O)(=O)c3ccc(Cl)cc3)cc2CC(=O)N([C@H](C)CO)C[C@@H]1C | u | x | x | x | -1 | x
C[C@@H]1CN([C@@H](C)CO)C(=O)Cc2cc(NS(=O)(=O)c3ccc(F)cc3)ccc2O[C@@H]1CN(C)S(=O)(=O)c1ccc(F)cc1 | 0 | 4 | 17 | 5 | -2 | -11

3 compounds picked at random from the list so far, as already listed:
mol | E-sel inducer | SIRT5 block | UUG fidelity | RAD54 branch | MLL AF4-AF9 inh | RAD52 anneal inh
CC(C)NC(=O)N(C)C[C@H]1Oc2ccc(NS(=O)(=O)c3ccc(Cl)cc3)cc2CC(=O)N([C@H](C)CO)C[C@@H]1C | u | x | x | x | -1 | x
C[C@H]1CN([C@@H](C)CO)C(=O)Cc2cc(NS(=O)(=O)c3ccc(Cl)cc3)ccc2O[C@H]1CN(C)S(=O)(=O)c1ccc(Cl)cc1 | 2 | 8 | -3 | 6 | 3 | -9
C[C@@H]1CN([C@H](C)CO)C(=O)Cc2cc(NS(=O)(=O)c3ccc(F)cc3)ccc2O[C@@H]1CN(C)S(=O)(=O)c1ccc(Cl)cc1 | 69* | x | -1 | 1 | x | x

Continued:
mol | E-sel inducer | SIRT5 block | UUG fidelity | RAD54 branch | MLL AF4-AF9 inh | RAD52 anneal inh
C[C@H]1CN([C@@H](C)CO)C(=O)Cc2cc(NS(=O)(=O)c3ccc(F)cc3)ccc2O[C@@H]1CN(C)S(=O)(=O)c1ccc(Cl)cc1 | 60* | x | 5 | 9 | x | x
CC(C)NC(=O)N(C)C[C@@H]1Oc2ccc(NS(=O)(=O)c3ccc(Cl)cc3)cc2CC(=O)N([C@@H](C)CO)C[C@@H]1C | 22 | 1 | -7 | 7 | 36* | -4
CCC(=O)N1CC(=O)N2[C@H](CO)[C@@H](c3ccc(C#Cc4cccc(OC)c4)cc3)[C@H]2C1 | 0 | 0 | x | x | 3 | -21
O=C(COc1ccc(-n2ccnc2)cc1)Nc1cccc(Cl)c1 | 4 | 23* | x | x | 5 | 7
CC[n+]1c(/C=C/c2c[nH]c3ccccc23)ccc2cc(C)ccc21 | x | 12 | x | x | 26* | i
CCN1/C(=C/c2ccc3cc(C)ccc3[n+]2CC)Sc2cc(C)ccc21 | x | -4 | 40 | i | 19 | i
Cc1cccc(-n2nnnc2SCC(=O)NCC2(N3CCOCC3)CCCCC2)c1C | x | -4 | -12 | -5 | 1 | -25
COc1ccccc1-n1nnnc1SCC(=O)NCC1(N2CCOCC2)CCCCC1 | x | -3 | -2 | -1 | 27* | -17
C[C@@H]1CN([C@H](C)CO)C(=O)c2cccc(NS(=O)(=O)c3cn(C)cn3)c2O[C@H]1CN(C)S(=O)(=O)c1cccs1 | 0 | -5 | -7 | 1 | -4 | -3
